Measurements: BindingDB's records for patent US9303015 (Janssen Pharmaceutica NV, 2016)
Several values for one entry are separate records, joined by “and”; a condition that tells them apart may be missing. Equal values may be shown once.

Protein sequences, listed by entry. Tags and fused reporters are not part of them. Residues count along the entry.
UniProt P51449, 258-518 Y502F: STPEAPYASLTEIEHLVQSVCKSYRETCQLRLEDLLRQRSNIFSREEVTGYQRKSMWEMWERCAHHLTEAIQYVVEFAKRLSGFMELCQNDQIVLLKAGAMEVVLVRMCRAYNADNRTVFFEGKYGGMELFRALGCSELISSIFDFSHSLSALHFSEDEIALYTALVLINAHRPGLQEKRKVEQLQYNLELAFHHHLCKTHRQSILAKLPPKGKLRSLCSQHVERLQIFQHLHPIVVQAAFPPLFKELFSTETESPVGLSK

The molecules below were run against T1, Nuclear receptor ROR-gamma [258-518,Y502F] (Human, UniProt P51449, Y502F) (assay: RORγt Reporter Assay).
T1 construct: 258-518
For `Cn1cncc1C(O)(c1ccc(Cl)cc1)c1ccc2nc(N3CCC3)c(Oc3ccc(C#N)cc3)c(Cl)c2c1` (single isomer, unassigned) [US9303015, 32a], the IC50 was 120 nM and 66 nM. With `COc1ccc(C(O)(c2ccc3nc(N(C)C)c(Oc4ccccc4)c(Cl)c3c2)c2cncn2C)cn1` (stereo not drawn) [US9303015, 17] the IC50 was 150 nM. Molecule `Cn1cncc1C(O)(c1ccc(Cl)cc1)c1ccc2nc(N3CCC3)c(Oc3ccc(C#N)cc3)c(Cl)c2c1` (stereo not drawn) [US9303015, 32a] has an IC50 of 72 nM.
